The list shows a part of the results, in another mix than the full data. Active and inactive are the calls of the source.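 Rule for the calls: active = inhibition above the batch mean plus 3 SD, with images confirmed as a hit by eye (cut at about 37% in these data); inconclusive = inhibition above that limit but hit not confirmed in images; inactive = inhibition not above that limit.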
Assay: inhibitors of TNFa-induced VCAM1 expression, primary screen, imaging, HUVEC, TNFa stimulus, immunofluorescence (AID 802);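 note: 0% = TNF-stimulated DMSO wells and 100% = unstimulated control wells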
Conditions: HUVEC TNFa-induced VCAM-1 immunofluorescence, high-content imaging; at 2 µM; active compounds read high

Structure (SMILES) | inhibition
COc1ccccc1OP(C)(=O)Nc1c(C)cccc1C (stereo not given) | inactive: 14.3%
Cc1nc2ccc3ccccc3c2s1.O=[N+]([O-])c1cc([N+](=O)[O-])c(O)c([N+](=O)[O-])c1 | inactive: -14.7%
Cc1ccc(C)c(NP(C)(=O)Oc2ccccc2)c1 (stereo not given) | inactive: 7.3%
Cc1cc(C)cc(OP(C)(=O)Nc2ccccn2)c1 (stereo not given) | inactive: -10.4%
Cc1cc(C)cc(OP(C)(=O)Nc2ccc(C)cc2C)c1 (stereo not given) | inactive: -27%
COc1ccc(OP(C)(=O)Nc2cccc(F)c2)cc1 (stereo not given) | inactive: -2.7%
CP(=O)(Nc1ccccn1)Oc1ccc(Cl)cc1 (stereo not given) | inactive: 5.8%
CP(=O)(NC(=O)Nc1ccccc1)Oc1ccccc1 (stereo not given) | inactive: -41.1%
CP(=S)(Nn1cnnc1)Oc1ccccc1 (stereo not given) | inactive: -7.8%
CP(=O)(OC12CC3CC(CC(C3)C1)C2)OC12CC3CC(CC(C3)C1)C2 | inactive: -1.8%
CC(C)(C)c1ccc(OP(C)(=O)O)cc1 | inactive: -6.3%
CP(=O)(Nc1ccc(Cl)cc1)Oc1ccc(F)cc1 (stereo not given) | inactive: 7%
COc1ccccc1OP(C)(=O)Nc1c(C)n(C)n(-c2ccccc2)c1=O (stereo not given) | inactive: 3.5%
CP(=O)(Oc1ccccc1)N1CCOC1=O (stereo not given) | inactive: 15.3%
CCN(CC)CC(O)COC(=O)C(O)(c1ccccc1)C1CCCCC1 (stereo not given) | inactive: -4%
COc1ccccc1OP(C)(=O)Nc1ccc(C)cc1C (stereo not given) | inactive: 9.4%
CP(=O)(Nc1ccccn1)Oc1ccccc1 (stereo not given) | inactive: 7.5%
CCc1ccc(OP(C)(=O)O)cc1 | inactive: 12%
Cc1c(NP(C)(=O)Oc2ccc(C(C)C)cc2)c(=O)n(-c2ccccc2)n1C (stereo not given) | inactive: 9%
COc1ccc(OP(C)(=O)Nc2ccccn2)cc1 (stereo not given) | inactive: 20%
CN(C)CCOC(=O)C(O)(c1ccccc1)C1CCCC1 (stereo not given) | inactive: -6.5%
Cc1nc2ccc3ccccc3c2o1.O=[N+]([O-])c1cc([N+](=O)[O-])c(O)c([N+](=O)[O-])c1 | inactive: 3.9%
COc1ccccc1OP(C)(=O)Nc1ccc(C)c(C)c1 (stereo not given) | inactive: -2.1%
CP(=O)(Nc1ccccc1)Oc1ccc(F)cc1 (stereo not given) | inactive: -10.3%
CCN(CC)CCCOC(=O)C(O)(c1ccccc1)C1CCCCC1 (stereo not given) | inactive: -4.7%
CP(=O)(Nc1ccccc1F)Oc1ccccc1 (stereo not given) | inactive: 1.9%
CP(=O)(Nc1ccc2c(c1)OCCO2)Oc1ccccc1 (stereo not given) | inactive: 9.2%
CCOP(C)(=S)SCC(=O)NC(C)(CC)C(=O)O (stereo not given) | inactive: -12.6%
CN(C)CCOC(=O)C(O)(c1ccccc1)C1CCCCC1 (stereo not given) | inactive: -1.3%
COc1ccc(OP(C)(=O)Nc2cccc(Br)c2)cc1 (stereo not given) | inactive: 17.4%

— PubChem BioAssay AID802 (Columbia University Molecular Screening Center, 2007)
